Measured values reported in patent US11691963B2, “6-heteroaryloxy benzimidazoles and azabenzimidazoles as JAK2 inhibitors” (Ajax Therapeutics, Inc., priority 2020, dated 2023).

Protein sequences, listed by entry. Tags and fused reporters are not part of them. Residues count along the entry.
UniProt O60674, 849-1124 Y1007F/Y1008F limits assumed: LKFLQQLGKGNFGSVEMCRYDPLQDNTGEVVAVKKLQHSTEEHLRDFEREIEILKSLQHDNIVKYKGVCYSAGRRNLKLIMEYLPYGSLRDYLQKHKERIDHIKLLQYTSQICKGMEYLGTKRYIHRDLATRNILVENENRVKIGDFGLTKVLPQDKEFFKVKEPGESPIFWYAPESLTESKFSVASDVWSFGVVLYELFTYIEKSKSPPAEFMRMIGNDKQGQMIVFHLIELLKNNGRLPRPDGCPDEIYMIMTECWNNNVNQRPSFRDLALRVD

Target: JAK2 (JH1domain-catalytic, Y1007F,Y1008F) kinase (Homo sapiens (Human), UniProt O60674, Y1007F/Y1008F)
Assay: JAK2 Binding Assay (JAK2 JH1 Domain Binding Assay)
Conditions: read-out: JAK2 Kd, qPCR readout
Protocol: JAK2 (JH1domain-catalytic, Y1007F,Y1008F) kinase was expressed as N-terminal fusion to the DNA binding domain of NFkB in transiently transfected HEK293 cells and subsequently tagged with DNA for qPCR detection. Streptavidin-coated magnetic beads were treated with biotinylated small molecule ligands for 30 minutes at room temperature to generate affinity resins for kinase assays. The liganded beads were blocked with excess biotin and washed with blocking buffer (SeaBlock (Pierce), 1% BSA, 0.05% Tween 20, 1 mmol/L DTT) to remove unbound ligand and to reduce nonspecific phage binding. Binding reactions were assembled by combining kinases, liganded affinity beads, and test compounds in 1× binding buffer (1×PBS, 0.05% Tween 20, 0.1% BSA, 1 mmol/L DTT). Test compound was prepared as 111× stocks in 100% DMSO and directly diluted into the assay wells. All reactions were performed in polypropylene 384-well plates in a final volume of 0.02 mL. The assay plates were incubated at room temperature with shaking for 1 hour and the affinity beads were washed with wash buffer (1×PBS, 0.05% Tween 20). The beads were then re-suspended in elution buffer (1×PBS, 0.05% Tween 20, 0.5 μmol/L non-biotinylated affinity ligand) and incubated at room temperature with shaking for 30 minutes. The kinase concentration in the eluate was measured by qPCR.

With `CC(=O)Nc1cc(Oc2ccc3nc(Nc4cc(C(C)(C)C)nn4C)n(C)c3c2C)ccn1` the Kd was 10 to 50 nM.
